System: uptake of serotonin by platelets
Conditions: human platelet-rich plasma; estimated value

CNCCC(Oc1ccc(C(F)(F)F)cc1)c1ccccc1 (stereo not shown) [fluoxetine, N-methyl 3-(p-trifluoromethylphenoxy)-3-phenylpropylamine, reference compound]
estimated IC50, serotonin uptake by platelets: 22 nmol

Reference: patent US4207343A, “1-Phenyl-3-(substituted phenoxy)propylamines” (priority 1978, dated 1980)
